From ChEMBL document CHEMBL1140718, “Fragment-based discovery of mexiletine derivatives as orally bioavailable inhibitors of urokinase-type plasminogen activator” (J Med Chem, 2008)
pIC50: −log10 of the molar value.

Target: Urokinase-type plasminogen activator (Homo sapiens, UniProt P00749)

Structure (SMILES): CCOc1c(Cl)cc(N2CCCCC2)cc1NC(=O)c1cc(C)c(OCCN)c(C)c1
- pIC50: 7.14
